# Experimental fraction unbound values from OPERA 2.9

From the experimental data distributed with OPERA 2.9.

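The OPERA project collected these measurements from public sources as training and test data for property models. The files give a single number for a compound and property, which may rest on several reports. Conditions of the individual experiments are not part of the data. Where a salt, mixture or single isomer is drawn, the source does not say that exactly this form was tested. Some entries may be limits or estimates that an upstream database listed as plain numbers.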

fu is the fraction unbound in human plasma, from 0 to 1.

structure (SMILES)	fu
CC[C@@H](CO)NC(=O)[C@@H]1C=C2c3cccc4[nH]cc(c34)C[C@H]2N(C)C1	0.65
C[Si](Cn1cncn1)(c1ccc(F)cc1)c1ccc(F)cc1	0.02925
CCOP(=S)(OCC)Oc1nc(Cl)n(C(C)C)n1	0.0659
FC(F)(Cl)Cl	0.7731
CC1(C)C(C(=O)OC(C#N)c2cccc(Oc3ccccc3)c2)C1(C)C (configuration not stated)	0.00644
CN(C)c1nc(=O)n(C2CCCCC2)c(=O)n1C	0.6125
COc1cnc(OC)n2nc(NS(=O)(=O)c3c(OCC(F)F)cccc3C(F)(F)F)nc12	0.01002
Cc1nnc2n1-c1sc(Br)cc1C(c1ccccc1Cl)=NC2	0.094
Cc1ccc(-c2c(Cl)nc(C#N)n2S(=O)(=O)N(C)C)cc1	0.051
C/C(=C/C=C/[C@@H](C)C(=O)O)[C@H]1CN[C@H](C(=O)O)[C@H]1CC(=O)O	0.92
CCOP(=S)(OCC)SCCSCC	0.001251
CCC1(CC)C(=O)NC(=O)NC1=O	0.9
O=C(N[C@H]1CN2CCC1CC2)c1ccc2c(c1)OCCO2	1
c1ccc2c(c1)Sc1ccccc1N2CC1CN2CCC1CC2 (configuration not stated)	0.1
CCOC(=O)C1(c2ccccc2)CCN(CCC(C#N)(c2ccccc2)c2ccccc2)CC1	0.155
CCCN(CCC)c1c([N+](=O)[O-])cc(C(F)(F)F)cc1[N+](=O)[O-]	0.00376
COC(=O)c1ccccc1C(=O)OC	0.6567
CCCCSP(=O)(SCCCC)SCCCC	0.06742
C[C@]12CC[C@H](O)C[C@H]1CC[C@@H]1[C@@H]2CC[C@]2(C)[C@@H](C3=CC(=O)OC3)CC[C@]12O	0.0715
COc1cc(CCN)cc(OC)c1OC	0.85
CNC(=O)N(C)c1nnc(C(C)(C)C)s1	0.4175
COP(=O)(NC(C)=O)SC (configuration not stated)	0.8684
Cc1ccccc1N	0.713
O=C(O)C1N=C(c2ccccc2)c2cc(Cl)ccc2NC1=O (configuration not stated)	0.09
Oc1ccc2c(c1)[C@@]13CCCC[C@@]1(O)[C@@H](C2)N(CC1CCC1)CC3	0.1783
CN(C)C(=O)Oc1cc(OC(=O)N(C)C)cc(C(O)CNC(C)(C)C)c1 (configuration not stated)	0.55
CN[C@@H](C)Cc1ccccc1	0.85
CC[C@H](C)[C@H]1O[C@]2(C=C[C@@H]1C)C[C@@H]1C[C@@H](CC=C(C)[C@@H](O[C@H]3C[C@H](OC)[C@@H](O[C@H]4C[C@H](OC)[C@@H](O)[C@H](C)O4)[C@H](C)O3)[C@@H](C)C=CC=C3CO[C@@H]4[C@H](O)C(C)=C[C@@H](C(=O)O1)[C@]34O)O2	0.067
CNC(=O)ON=C(C)SC	0.716
CCC1(c2ccc(N)cc2)CCC(=O)NC1=O (configuration not stated)	0.6287
CCc1cccc(CC)c1N	0.08962
Oc1cc(Cl)ccc1Oc1ccc(Cl)cc1Cl	0.00339
CC1(C(=O)Nc2ccc(O)c(Cl)c2Cl)CCCCC1	0.05753
Nc1ccc(Cl)cc1	0.264
CCCCC1(CC)C(=O)NC(=O)NC1=O	0.67
CC[C@H](OC(C)=O)C(C[C@H](C)N(C)C)(c1ccccc1)c1ccccc1	0.2
O=NN(c1ccccc1)c1ccccc1	0.04368
C1=CCCC=CCCC=CCC1	0.04143
CCNc1nc(Cl)nc(NCC)n1	0.2834
C1=Cc2cccc3cccc1c23	0.01116
N#Cc1c[nH]cc1-c1cccc2c1OC(F)(F)O2	0.00325
Cc1ccccc1	0.3
O=S(=O)([O-])C(F)(F)C(F)(F)C(F)(F)C(F)(F)F.[K+]	0.01933
CC(C)c1ccc(NC(=O)N(C)C)cc1	0.258
Nc1ccc(Oc2ccc(N)cc2)cc1	0.3284
CCC1(c2ccccc2)CCC(=O)NC1=O (configuration not stated)	0.5
c1ccc2c(c1)-c1cccc3cccc-2c13	0.01409
CCCCOC(=O)c1ccccc1C(=O)OCCCC	0.03231
C[C@]12CCC(=O)C(O)=C1CC[C@@H]1[C@@H]2CC[C@]2(C)C(=O)CC[C@@H]12	0.16
CS(=O)(=O)c1ccc(C(=O)C2C(=O)CCCC2=O)c([N+](=O)[O-])c1	0.3541
O=[N+]([O-])O[C@H]1CO[C@H]2[C@@H]1OC[C@H]2O[N+](=O)[O-]	0.7567
CC[C@H]1C[N@@]2CC[C@H]1C[C@@H]2[C@@H](O)c1ccnc2ccc(OC)cc12	0.22
C=CCl	0.5925
CON=C(C(=O)OC)c1ccccc1CON=C(C)c1cccc(C(F)(F)F)c1	0.0072
CCC1(C2=CCCCCC2)C(=O)NC(=O)NC1=O	0.62
Cc1cc(C)nc(NC(=O)NS(=O)(=O)c2ccccc2C(=O)OC2COC2)n1	0.06081
Cc1cccc(C)c1N	0.4311
COc1cc(OC)nc(NC(=O)NS(=O)(=O)c2cc(NC=O)ccc2C(=O)N(C)C)n1	0.06415
CCc1cc2c(s1)-n1c(C)nnc1CN=C2c1ccccc1Cl	0.07
COc1cc(OC)nc(NC(=O)[N-]S(=O)(=O)c2ncccc2OCC(F)(F)F)n1.[Na+]	0.00325
CC(C)OC(=O)Nc1cccc(Cl)c1	0.0429
CCOP(=S)(OCC)OP(=S)(OCC)OCC	0.0206
Clc1cccc(Cl)c1Cl	0.01567
COc1ccc2c3c1O[C@H]1[C@@H](O)C=C[C@H]4[C@@H](C2)N(C)CC[C@@]341	0.945
Cc1cc(Cl)ccc1OCC(=O)O	0.01833
ClC1C(Cl)C(Cl)C(Cl)C(Cl)C1Cl (mixture of isomers)	0.02703
O=c1[nH]c2ccccc2n1C1CCN(CCCC(c2ccc(F)cc2)c2ccc(F)cc2)CC1	0.05
C/C(=CC(=O)N(C)C)/OP(=O)(OC)OC	0.8429

The last 3 entries again:

{"smiles": "ClC1C(Cl)C(Cl)C(Cl)C(Cl)C1Cl", "stereo": "mixture of isomers", "fu": "0.02703"}
{"smiles": "O=c1[nH]c2ccccc2n1C1CCN(CCCC(c2ccc(F)cc2)c2ccc(F)cc2)CC1", "fu": "0.05"}
{"smiles": "C/C(=CC(=O)N(C)C)/OP(=O)(OC)OC", "fu": "0.8429"}